Binding of CDR-mutated scFvs to a peptide of the spike HR2 region

Reference: Li et al. 2023, doi:10.1038/s41467-023-39022-2. File: FLAb, binding data.

Target peptide (SARS-CoV-2 spike, HR2 region): PDVDLGDISGINAS

Ab-14 is the parent antibody, in scFv form: VH, then a 15-residue (Gly4Ser)3 linker, then VL. The heavy chain is unchanged in all variants.
VH: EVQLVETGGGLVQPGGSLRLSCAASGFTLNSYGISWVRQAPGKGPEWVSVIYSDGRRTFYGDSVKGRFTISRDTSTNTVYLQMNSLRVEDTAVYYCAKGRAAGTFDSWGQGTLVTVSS
VL: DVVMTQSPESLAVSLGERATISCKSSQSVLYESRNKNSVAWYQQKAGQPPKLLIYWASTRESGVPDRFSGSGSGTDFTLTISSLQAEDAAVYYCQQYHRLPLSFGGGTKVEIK

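Phage display of a naive human antibody library on the peptide gave the parent. These sequences belong to a second round, designed from the earlier measurements on random variants of the parent. Group labels follow the data file (En: ensemble of fine-tuned language models; GP: Gaussian process model; HC: hill climbing; Gen: genetic algorithm; Gibbs: Gibbs sampling; a sequence that several methods proposed may carry one label only). The scFvs were displayed on barcoded MATa yeast, the peptide on MATalpha yeast. The frequency of each diploid, read from paired DNA barcodes, reflects how well the two displayed proteins bind. Read counts were normalised to the haploid input and turned into Kd by a linear fit to BCL2-family pairs of known affinity, for each replicate. Mating was done six times.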

The parent's light chain CDRs are KSSQSVLYESRNKNSVA, WASTRES, QQYHRLPLS; each variant's own CDRs replace them letter for letter.
This list holds designs with more than six substitutions.
The Kd shown is the geometric mean over detected replicates; a lower Kd is a better binder.
Where no diploid with the target was found in any replicate, the entry reads "nd": below detection, most likely a poor binder, though not proof of it.
Values of this round are not directly comparable with the first-round values of the same sequences.
In the paper, a design with two or fewer of six values counts as a poor binder.
Empty control strains, which show no peptide, gave a signal in 4% of pairings with all light chain designs; the median was 430 nM and 95% of these signals were weaker than 38 nM. No background was subtracted.

- TISTSMRYEMSLKNAIA | NAQTRES | QQYHRLPIS [En_HC] -> 33 nM (6 of 6 replicates)
- KITQMVTGESHNKNSIA | QMTTREG | QQYHRLPLA [En_HC] -> 3.2 nM (6 of 6 replicates)
- KISQITGHLSVSKNNVA | EMETREN | QQYDRLPLS [En_Gen] -> 5.7 nM (6 of 6 replicates)
- MLSSVLHMAGVKKNSIA | DLVLRAN | QQYHRLPLS [En_Gen] -> 53 nM (6 of 6 replicates)
- IVSQLMLWGMHVKNSIA | EAVTRIN | QQYDRLPLI [En_Gen] -> nd (0 of 6 replicates)
- AISQMLEPAAQNSSSIA | EADRVTE | QQYSKLPLT [En_Gibbs] -> 8.3 nM (6 of 6 replicates)
- FITYQQDQTGLQRNAIA | QVNLKEN | QQYGRLPFA [En_Gibbs] -> nd (0 of 6 replicates)
- TIGMFMDNLMQNRNNVA | DTSTLGS | QSYDRLPLS [En_Gen] -> 13 nM (6 of 6 replicates)
- DFALDQDSMGEAKNSIA | DRNTKAH | QQYSRLPLV [En_Gibbs] -> 3.7 nM (6 of 6 replicates)
- KLSQEMLYESRMINSVA | NASQRES | QQYHRLPLS [GP_Gibbs] -> 2.9 nM (6 of 6 replicates)
- KISFLQNQTFEQSNNVA | EMVTREK | QQYNRLPLS [En_Gen] -> 21 nM (6 of 6 replicates)
- KMAQSNPYESRNKNSVA | NASYREM | QQYHRLPLS [GP_Gibbs] -> 740 pM (6 of 6 replicates)
- MISQLYNMGQFAINSVA | QASIRND | QQYDRLPLM [En_Gen] -> 35 nM (6 of 6 replicates)
- KVWFSVLGQERNKMSVA | QASTRES | QQYHRLPLS [GP_Gibbs] -> 5.1 nM (6 of 6 replicates)
- TLYGLSNSMSINKNSVA | EMTTREK | QQYDRLPLA [En_Gen] -> nd (0 of 6 replicates)
- KLRLHNLDFYEVENSIA | GVSNRAH | QQYYRLPLN [En_Gibbs] -> 310 nM (6 of 6 replicates)
- KIRVQQYSQSEMESNIA | QESVRHQ | QQYFHLPLS [En_Gibbs] -> 52 nM (4 of 6 replicates)
- KLQWYPLEIRDTGSAVA | EAATRYN | QQYMRLPLM [En_Gibbs] -> 1.1 nM (6 of 6 replicates)
- MMLSHSLEVQNINNAVA | EASMVYD | QQYVSLPLS [En_Gibbs] -> nd (0 of 6 replicates)
- KLSISMLHESINKHSVA | EVRTREN | QQYDRLPLS [En_HC] -> nd (0 of 6 replicates)
- KFSGSDLYESRNSNSVA | HGSTRES | QDYHRLPLS [GP_Gibbs] -> 960 pM (6 of 6 replicates)
- KLSTSVLYEQRMANAVA | AASTREE | QQYHRLPLS [GP_Gibbs] -> 990 pM (6 of 6 replicates)
- KLSNSWLMESRNSNSVA | HASKRMS | QQYHRLPLS [GP_Gibbs] -> 7.7 nM (6 of 6 replicates)
- KLSQSVPYEERNKAQVA | DASTRMS | QQYHRLPLS [GP_Gibbs] -> 3.9 nM (6 of 6 replicates)
- RVSSMLMAGGIIYNNIA | GTKVLER | QQYMRLPLM [En_Gibbs] -> 7.9 nM (6 of 6 replicates)
- KMQGSVMMSSRNDNSVA | DASTREE | QQYHRLPLS [GP_Gibbs] -> 1.3 nM (6 of 6 replicates)
- TLMYWGEWEGENKKSVA | NAIIKNE | QQYSRLPLA [En_Gibbs] -> 26 nM (4 of 6 replicates)
- KVSQSVLVGDRNKSSVA | QASTREM | QQYHRLPLS [GP_Gibbs] -> 4.9 nM (6 of 6 replicates)
- MLSQMWALGNKVKNSVA | QASMRFN | QQYDRLPLI [En_Gen] -> 23 nM (6 of 6 replicates)
- NISESMYFQSFNKNNIA | EMSTRER | QHYHRLPLS [En_HC] -> 7.8 nM (6 of 6 replicates)
- HLMPLNLHYTETLNSVA | EAEERQE | QHYARLPLM [En_Gibbs] -> 14 nM (6 of 6 replicates)
- KIQNMAWSGSMKWNAVA | ASEHKVG | QQYGRLPFT [En_Gibbs] -> 88 nM (6 of 6 replicates)
- MINQLYNMGSFAINSVA | QASQRNE | QQYDRLPLI [En_Gen] -> 16 nM (6 of 6 replicates)
- NVHALMNHSSDLMQSIA | DEECRDA | QQYERLPLS [En_Gibbs] -> 54 nM (6 of 6 replicates)

Picked from the list: the 3 lowest averages where every replicate gave a value.

- KMAQSNPYESRNKNSVA | NASYREM | QQYHRLPLS [GP_Gibbs] = 740 pM (6 of 6 replicates)
- KFSGSDLYESRNSNSVA | HGSTRES | QDYHRLPLS [GP_Gibbs] = 960 pM (6 of 6 replicates)
- KLSTSVLYEQRMANAVA | AASTREE | QQYHRLPLS [GP_Gibbs] = 990 pM (6 of 6 replicates)